Laboratory results as given in ChEMBL document CHEMBL1152116, “Novel benzimidazole-4-carboxylic acid derivatives as potent and selective 5-HT3 receptor ligands” (Bioorg Med Chem Lett, 1996).

By UniProt entry, the sequences of proteins in these tests, tags left out. Where a name states a change or a piece, a line headed by the entry shows the natural chain unless it says otherwise. Residues count along the entry.
UniProt P35563, 24-483 limits assumed: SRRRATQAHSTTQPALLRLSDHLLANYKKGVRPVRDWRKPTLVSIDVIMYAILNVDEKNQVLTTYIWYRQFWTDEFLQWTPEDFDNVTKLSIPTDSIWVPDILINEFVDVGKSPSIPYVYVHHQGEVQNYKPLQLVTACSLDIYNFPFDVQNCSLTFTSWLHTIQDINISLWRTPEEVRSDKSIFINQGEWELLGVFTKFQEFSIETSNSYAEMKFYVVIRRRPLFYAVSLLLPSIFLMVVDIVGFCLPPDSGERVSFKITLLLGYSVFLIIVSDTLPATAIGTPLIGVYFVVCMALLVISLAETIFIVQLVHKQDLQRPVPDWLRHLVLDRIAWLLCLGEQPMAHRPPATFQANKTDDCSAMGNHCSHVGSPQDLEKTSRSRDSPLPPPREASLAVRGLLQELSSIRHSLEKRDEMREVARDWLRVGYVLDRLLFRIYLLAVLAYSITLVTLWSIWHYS
UniProt Q9JJ16, 22-437 limits assumed: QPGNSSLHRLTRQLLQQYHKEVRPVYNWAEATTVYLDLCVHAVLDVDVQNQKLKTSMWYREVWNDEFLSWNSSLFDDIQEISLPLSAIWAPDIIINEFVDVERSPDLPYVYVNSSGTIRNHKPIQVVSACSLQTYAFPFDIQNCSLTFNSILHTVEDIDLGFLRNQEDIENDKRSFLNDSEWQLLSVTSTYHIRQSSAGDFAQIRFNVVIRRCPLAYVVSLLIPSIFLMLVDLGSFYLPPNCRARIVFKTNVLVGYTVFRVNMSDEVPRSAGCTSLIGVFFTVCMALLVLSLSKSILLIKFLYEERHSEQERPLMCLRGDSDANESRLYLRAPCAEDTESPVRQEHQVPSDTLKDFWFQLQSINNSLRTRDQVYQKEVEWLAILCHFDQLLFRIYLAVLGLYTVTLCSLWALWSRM
UniProt Q62758: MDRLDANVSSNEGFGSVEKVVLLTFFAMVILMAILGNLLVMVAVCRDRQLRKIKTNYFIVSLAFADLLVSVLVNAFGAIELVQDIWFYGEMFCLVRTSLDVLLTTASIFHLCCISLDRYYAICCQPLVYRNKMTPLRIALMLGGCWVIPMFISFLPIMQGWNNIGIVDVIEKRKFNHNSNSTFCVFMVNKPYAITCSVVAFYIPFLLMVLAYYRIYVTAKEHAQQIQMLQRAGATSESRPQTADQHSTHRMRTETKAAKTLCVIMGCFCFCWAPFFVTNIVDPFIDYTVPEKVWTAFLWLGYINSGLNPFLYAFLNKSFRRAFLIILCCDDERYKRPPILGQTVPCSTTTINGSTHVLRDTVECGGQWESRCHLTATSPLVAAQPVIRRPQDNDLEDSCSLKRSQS

How the values were obtained:
[1] = biological target: Serotonin 3 (5-HT3) receptor (Rattus norvegicus, UniProt P35563+Q9JJ16); assay: In vitro displacement of [3H]-LY 278584 from rat cerebral cortex 5-hydroxytryptamine 3 receptor
[2] = biological target: 5-hydroxytryptamine receptor 4 (Rattus norvegicus, UniProt Q62758); assay: Displacement of [3H]GR-113808 from rat striatum 5-hydroxytryptamine 4 receptor

SMILES | Ki [1] | Ki [2]
O=C(OC1CN2CCC1CC2)c1cc(Cl)cc2[nH]cnc12 (centres undefined) | 9.3 nM | 440 nM
O=C(OC1CN2CCC1CC2)c1cccc2nc[nH]c12 (centres undefined) | 185 nM | > 10000 nM
